In ChEMBL document CHEMBL5154825, “Discovery of V-0219: A Small-Molecule Positive Allosteric Modulator of the Glucagon-Like Peptide-1 Receptor toward Oral Treatment for "Diabesity"” (J Med Chem, 2022):
Active and inactive are the calls of the source. The calls are words filed in the database; no cut-off is given here.

Target: T1, Glucagon-like peptide 1 receptor (Rattus norvegicus) (UniProt P32301)
T1 sequence (whole entry): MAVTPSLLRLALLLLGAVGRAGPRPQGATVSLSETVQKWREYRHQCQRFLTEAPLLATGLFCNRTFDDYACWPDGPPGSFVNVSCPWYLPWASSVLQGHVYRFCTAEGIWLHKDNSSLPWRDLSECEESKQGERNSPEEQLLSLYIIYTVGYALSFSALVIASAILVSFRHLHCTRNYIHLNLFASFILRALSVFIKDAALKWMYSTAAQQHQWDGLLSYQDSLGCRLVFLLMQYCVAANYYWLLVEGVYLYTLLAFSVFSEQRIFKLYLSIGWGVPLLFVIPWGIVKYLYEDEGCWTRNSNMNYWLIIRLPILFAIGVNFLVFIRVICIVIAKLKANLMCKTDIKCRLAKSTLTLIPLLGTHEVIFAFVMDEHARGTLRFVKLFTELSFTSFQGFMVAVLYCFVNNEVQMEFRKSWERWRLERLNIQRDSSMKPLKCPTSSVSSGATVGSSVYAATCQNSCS
Experiment: Positive allosteric modulator activity at GLP-1R in rat INS1 beta-cells assessed potentiation of GLP-1(7-36)NH2 induced insulin secretion at 1 uM incubated for 30 mins in presence of 15 mM of glucose by ELISA
Format: cell-based
Conditions: filed as positive allosteric modulator
Outline: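 Rat INS-1 cells held in glucose-free medium for 1.5 h (100,000 cells/well). […] Medium was centrifuged at 4 °C and secreted insulin measured by ELISA.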

## FC(F)(F)c1ccc(-c2noc(CN3CCCC(CN4CCOCC4)C3)n2)cc1 (stereo unspecified)
  Activity: Active
